The results in this text go back to patent US7285687B2 (priority 2002, dated 2007).

The test system of test [1] is male ICR mice. Description: Tail-flick antinociception (TF, % MPE) in mice, i.v. Format: in vivo, mouse. To be noted: @ 30 mg/kg, Table 6. Here is the method: (§1) Male ICR mice (25-32 g), obtained from Harlan (Dublin, Va.), were housed in groups of five. All animals were kept in a temperature-controlled (20-22° C.) environment with a 12-hour light-dark cycle (lights on at 7 a.m.). Separate mice were used for testing each drug dose in the in vivo behavioral procedures. Brain tissue for binding studies was obtained from male Sprague-Dawley rats (150-200 g) purchased from Harlan Laboratories (Dublin, Va.).
(§2) Measurement of spontaneous activity in mice occurred in standard activity chambers interfaced with a Digiscan Animal Activity Monitor (Omnitech Electronics, Inc., Columbus, Ohio). […]
(§3) Prior to testing in the behavioral procedures, mice were acclimated to the experimental setting (ambient temperature 22-24° C.) overnight. Pre-injection control values were determined for rectal temperature and tail-flick latency (in sec). Five min after i.v. injection with drug or vehicle, mice were placed in individual activity chambers and spontaneous activity was measured for 10 min. […] Tail-flick latency was measured at 20 min post-injection. […] Antinociception was calculated as percent of maximum possible effect {% MPE=[(test−control latency)/(10-control)]×100}. […] At 30 min post-injection, rectal temperature was measured. This value was expressed as the difference between control temperature (before injection) and temperatures following drug administration (° C.). […]

The subject of test [2] is male ICR mice. The test can be described thus: Suppression of spontaneous activity (SA) in mice, i.v. To be noted: @ 30 mg/kg, Table 6. The class given is in vivo, mouse. As for the experimental part:
as §1, §2, §3

Consider `CCCCCCC(C)(C)c1cc(OC)c(C2(O)CCOCC2)c(OC)c1`, for which the “T.F. % effect at dose” value in the test with male ICR mice [1] is given as 23% @ 30. For the same compound, in the test on male ICR mice [2], the “S.A. % effect at dose” value was found to be 36% @ 30.
